# Molecular target: T1, Androgen receptor (Rattus norvegicus, UniProt P15207)
# T1 sequence (P15207 whole entry): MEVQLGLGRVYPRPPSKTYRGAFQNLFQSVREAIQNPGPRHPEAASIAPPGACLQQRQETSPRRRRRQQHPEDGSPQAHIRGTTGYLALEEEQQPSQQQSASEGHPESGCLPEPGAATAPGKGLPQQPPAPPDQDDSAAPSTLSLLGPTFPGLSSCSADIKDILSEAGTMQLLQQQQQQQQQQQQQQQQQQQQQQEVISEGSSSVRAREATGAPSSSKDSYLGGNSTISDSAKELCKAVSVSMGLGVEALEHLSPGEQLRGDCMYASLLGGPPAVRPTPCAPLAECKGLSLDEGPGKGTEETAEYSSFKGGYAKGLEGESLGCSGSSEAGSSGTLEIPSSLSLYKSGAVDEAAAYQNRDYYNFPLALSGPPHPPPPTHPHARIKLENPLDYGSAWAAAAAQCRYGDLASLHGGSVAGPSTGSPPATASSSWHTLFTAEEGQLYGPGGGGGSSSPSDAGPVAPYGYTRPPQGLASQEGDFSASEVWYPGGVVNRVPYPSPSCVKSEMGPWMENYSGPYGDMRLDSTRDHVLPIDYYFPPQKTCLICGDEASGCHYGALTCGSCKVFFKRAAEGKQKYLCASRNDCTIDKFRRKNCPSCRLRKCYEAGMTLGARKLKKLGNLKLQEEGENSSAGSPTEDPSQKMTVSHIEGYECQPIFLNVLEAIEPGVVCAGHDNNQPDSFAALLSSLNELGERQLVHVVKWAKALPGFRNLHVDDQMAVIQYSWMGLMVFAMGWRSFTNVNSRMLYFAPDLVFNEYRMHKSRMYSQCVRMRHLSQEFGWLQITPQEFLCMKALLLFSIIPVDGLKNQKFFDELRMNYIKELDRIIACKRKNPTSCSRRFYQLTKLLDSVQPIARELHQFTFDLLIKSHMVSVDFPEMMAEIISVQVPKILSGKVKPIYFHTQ
smiles,measurement,value
CC(=O)Nc1ccc(OC[C@@](C)(O)C(=O)Nc2ccc([N+](=O)[O-])c(C(F)(F)F)c2)cc1,Ki,4 nM

# Source: ChEMBL document CHEMBL1152222, “Effect of B-ring substitution pattern on binding mode of propionamide selective androgen receptor modulators” (Bioorg Med Chem Lett, 2008)
